Results as given in patent publication US5854081A, “Stable expression of human A2B adenosine receptors, and assays employing the same” (The University of Patent Foundation, priority 1996, dated 1998).

Protein sequences, listed by entry. Tags and fused reporters are not part of them. Lines headed by an entry give the natural chain unless they say otherwise; changes in a name come on top. Chains listed by the source or under a name are the forms on record and can include a tag or linker.
UniProt P29274, with tags, fused parts or gaps: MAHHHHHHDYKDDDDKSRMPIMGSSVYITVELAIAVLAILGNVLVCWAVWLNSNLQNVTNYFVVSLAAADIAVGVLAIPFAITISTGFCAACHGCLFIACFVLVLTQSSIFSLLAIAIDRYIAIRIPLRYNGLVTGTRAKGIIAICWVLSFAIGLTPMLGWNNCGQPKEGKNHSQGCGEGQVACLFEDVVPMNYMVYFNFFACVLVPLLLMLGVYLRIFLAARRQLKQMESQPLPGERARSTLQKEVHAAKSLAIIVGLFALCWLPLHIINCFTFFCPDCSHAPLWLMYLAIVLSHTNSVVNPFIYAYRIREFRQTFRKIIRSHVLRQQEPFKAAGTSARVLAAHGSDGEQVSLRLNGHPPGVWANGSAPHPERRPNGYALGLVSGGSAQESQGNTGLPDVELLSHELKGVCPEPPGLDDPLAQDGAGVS

What was measured:
[1] = biological target: recombinant human native-A2A adenosine receptor (Homo sapiens, UniProt P29274); assay: Competition for radioligand binding, native-A2A; conditions: competition with 70 nM [^3 H]NECA
[2] = biological target: recombinant human H/F-A2A adenosine receptor (Homo sapiens, UniProt P29274); assay: Competition for radioligand binding, H/F-A2A; conditions: competition with 70 nM [^3 H]NECA

NH (Hill coefficient) [1]: 0.80 ± 0.06
NH (Hill coefficient) [2]: 0.77 ± 0.11
SMILES: CCCn1c(=O)c2[nH]c(C3CCCC3)nc2n(CCC)c1=O [CPX, 8-cyclopentyl-1,3-dipropylxanthine]
